From paper PMC3942486, “The Ansamycin Antibiotic, Rifamycin SV, Inhibits BCL6 Transcriptional Repression and Forms a Complex with the BCL6-BTB/POZ Domain” (PLoS ONE, 2014) come the findings set out here.

The test addresses wild-type SMRT peptide, labelled with BODIPY TMR. Kind of test: fluorescence polarisation; fixed concentration of BODIPY TMR-labelled SMRT peptide, increasing concentration of BCL6-POZ domain; PBS, 0.05% (v/v) Triton X-100, 0.1 mg/mL BSA; room temperature; triplicate; one-site binding (hyperbola) fit. In general terms: Fluorescence polarisation rises when a labelled molecule tumbles more slowly, as on binding a larger partner.

One may read the Kd as the equilibrium constant for the complex coming apart. A higher Kd goes with weaker binding. Turning to “BCL6-POZ domain (residues 7 to 128 of human BCL6, C8Q, C67R, C84N) (from UniProt P41182 7-128) (domain or fragment; other documents disagree on this pair)”, the Kd was determined as 5 µM.
